Laboratory results reported in ChEMBL document CHEMBL4346703, “Structure Overhaul Affords a Potent Purine PI3Kδ Inhibitor with Improved Tolerability” (J Med Chem, 2019).

Columns and labels:
[1] = species: Homo sapiens; test: (§1) Selectivity ratio of IC50 for N-terminal His6-tagged recombinant full length human p110alpha/untagged recombinant full length human p85alpha expressed in baculovirus infected Sf21 insect cells to IC50 for N-terminal His6-tagged recombinant full length human p110delta/untagged recombinant full length human p85alpha expressed in baculovirus infected Sf21 insect cells
[2] = target: PI3-kinase p110-delta/p85-alpha (Homo sapiens, UniProt O00329); test: Inhibition of N-terminal His6-tagged recombinant full length human p110delta/untagged recombinant full length human p85alpha expressed in baculovirus infected Sf21 insect cells using PIP2 as substrate preincubated for 15 mins followed by substrate addition and measured after 1 hr by HTRF assay
[3] = target: T1, Phosphatidylinositol 4,5-bisphosphate 3-kinase catalytic subunit delta isoform (Homo sapiens, UniProt O00329); test: Inhibition of PI3Kdelta in human whole blood assessed as reduction in antihuman IgE antibody-stimulated CD63 expression preincubated for 30 mins followed by antihuman IgE antibody stimulation and measured after 20 mins by FACS analysis; assay type: tissue-based
T1 sequence (O00329 whole entry): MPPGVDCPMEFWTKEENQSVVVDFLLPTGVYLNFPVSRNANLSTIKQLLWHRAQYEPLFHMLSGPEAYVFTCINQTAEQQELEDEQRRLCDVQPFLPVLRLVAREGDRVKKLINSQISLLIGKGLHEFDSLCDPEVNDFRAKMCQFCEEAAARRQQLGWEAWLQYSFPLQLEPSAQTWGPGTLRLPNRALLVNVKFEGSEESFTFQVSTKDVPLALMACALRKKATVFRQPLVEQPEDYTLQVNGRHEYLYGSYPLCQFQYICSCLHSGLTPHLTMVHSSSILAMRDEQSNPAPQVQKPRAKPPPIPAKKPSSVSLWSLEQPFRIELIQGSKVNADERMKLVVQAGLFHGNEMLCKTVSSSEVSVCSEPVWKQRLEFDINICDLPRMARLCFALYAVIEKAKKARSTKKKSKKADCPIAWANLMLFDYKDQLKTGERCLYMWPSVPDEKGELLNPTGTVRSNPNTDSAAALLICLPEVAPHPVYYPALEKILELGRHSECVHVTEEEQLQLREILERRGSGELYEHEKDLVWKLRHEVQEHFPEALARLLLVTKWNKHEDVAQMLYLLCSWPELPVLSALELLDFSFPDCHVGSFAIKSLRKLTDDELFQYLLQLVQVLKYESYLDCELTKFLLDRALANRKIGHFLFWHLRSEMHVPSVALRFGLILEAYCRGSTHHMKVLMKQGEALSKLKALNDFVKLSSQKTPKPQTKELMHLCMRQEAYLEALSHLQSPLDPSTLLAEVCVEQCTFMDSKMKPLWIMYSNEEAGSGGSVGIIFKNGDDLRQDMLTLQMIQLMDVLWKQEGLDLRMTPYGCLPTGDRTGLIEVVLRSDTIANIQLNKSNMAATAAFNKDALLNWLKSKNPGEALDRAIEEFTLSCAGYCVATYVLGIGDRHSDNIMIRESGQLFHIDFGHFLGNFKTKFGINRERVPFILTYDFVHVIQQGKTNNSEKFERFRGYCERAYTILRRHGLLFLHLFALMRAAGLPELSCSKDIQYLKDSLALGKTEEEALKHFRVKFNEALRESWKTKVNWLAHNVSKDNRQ

[4] = target: T1, Phosphatidylinositol 4,5-bisphosphate 3-kinase catalytic subunit delta isoform; test: Inhibition of PI3Kdelta in human Ramos cells assessed as reduction in anti-IgM-antibody-induced phosphorylation of AKT at Ser473 residue preincubated for 20 mins followed by anti-IgM antibody stimulation and measured after 30 mins by alphascreen assay; assay type: cell-based
[5] = species: Homo sapiens; test: Selectivity ratio of IC50 for N-terminal His6-tagged recombinant full length human PI3Kgamma expressed in baculovirus infected Sf21 cells to IC50 for N-terminal His6-tagged recombinant full length human p110delta/untagged recombinant full length human p85alpha expressed in baculovirus infected Sf21 insect cells
[6] = species: Homo sapiens; test: as §1, with “p110beta/untagged” for “p110alpha/untagged”, “to” for “to IC50 for”

| Structure (SMILES) | Ratio IC50 [1] | IC50 [2] [nM] | IC50 [4] [nM] | other results |
| --- | --- | --- | --- | --- |
| CCn1ncc(-c2nc3c(N[C@@H](C)C(=O)N4CCOCC4)ncnc3n2C)c1C | 17 |  |  |  |
| CC[C@H](Nc1ncnc2c1nc(-c1cnn(CC)c1C)n2C)C(=O)N1C[C@@H](C)O[C@@H](C)C1 |  | 2.8 | 20 | IC50 [3]: 130 nM |
| CCC(=O)N1CC[C@H](Nc2ncnc3c2nc(-c2cnn(CC)c2C)n3C)C1 | 57 |  |  |  |
| CCn1ncc(-c2nc3c(N4CCC(n5c(=O)[nH]c6ncccc65)CC4)ncnc3n2C)c1C | 70 |  |  | Ratio IC50 [5]: 1000; Ratio IC50 [6]: 90 |
| CC[C@H](Nc1ncnc2c1nc(-c1cnn(CC)c1C)n2C)C(=O)N1CCOCC1 |  | 5.2 | 106 |  |
